Like-named read-outs stand apart in the source and are kept apart here.
How the values were obtained:
[1] = Solubility of hesperidin in solutions of different pH; type: physicochemical; conditions: alkaline solution (composition #18, 0.05 M sodium carbonate, pH 11)
[2] = cited from earlier work

In the case of hesperidin, the solubility of hesperidin [1] is listed as “easily dissolved”, the solubility of hesperidin ([2]; neutral to acidic solutions) is listed as “barely dissolves” and the solubility of hesperidin ([2]; strong alkali solutions having a pH of 11 or more) is listed as “dissolves”.

— patent US8507452B2, “Hesperidin-containing composition” (Sunstar Inc., priority 2009, dated 2013)
